Source: publication PMC10649572, “Arrhythmia-Associated Calmodulin E105A Mutation Alters the Binding Affinity of CaM to a Ryanodine Receptor 2 CaM-Binding Pocket” (International Journal of Molecular Sciences, 2023)

Columns and labels:
[1] = tested on: CaM; conditions: mouse RyR2 regions, ITC; ref [54]; cited from earlier work
Source text: Although the sequence that lies within the residues 3583-3603aa in RyR2 has been identified from multiple studies as the main and most well-established CaMBD region of RyR2 [16, 40, 41, 42], up-to-date many other linear fragments of RyR2 have also been reported as potential CaM-binding sequences but their exact role is not yet clear.

[2] = biological target: T1, CaM^E105A (Homo sapiens, UniProt P0DP23, E105A); experiment: Isothermal titration calorimetry (ITC), peptide titrated into CaM^E105A; type: binding; conditions: for Gibbs Free Energy Change (ΔrG) / Entropic Term (−T∙ΔrS) / Stoichiometry [N] / Binding Enthalpy (ΔrH): pH 7.4, 25 °C; for Gibbs Free Energy Change (ΔrG): calculated from Kb; for Entropic Term (−T∙ΔrS): calculated from ΔrG = ΔrH − T ΔrS; for Stoichiometry [N]: moles of peptide bound per mol of protein; for Stoichiometry [N] / Binding Enthalpy (ΔrH): one-set-of-sites fit
T1 construct: made in house; host or cells: Escherichia coli BL21-CodonPlus(DE3)

Molecule: 1941-1965aa: mouse RyR2 region 1941-1965aa, cited ITC study (FRYNEVMQALNMSAALTARKTREFR; UniProt E9Q401 1941-1965, looked up, fragment) [Peptide 1941-1965aa]
- affinity for CaM compared to the other two RyR2 regions [1]: much lower affinity
- binding to CaM [1]: bound to CaM

Molecule: 3580-3606aa: mouse RyR2 region 3580-3606aa, cited ITC study [Peptide 3580-3606aa]
- binding to CaM [1]: bound to CaM

Molecule: 4246-4276aa: mouse RyR2 region 4246-4276aa, cited ITC study (ALRYNVLTLVRMLSLKSLKKQMKRMKKMTVK; UniProt E9Q401 4246-4276, looked up, fragment) [Peptide 4246-4276aa]
- binding to CaM [1]: bound to CaM

Molecule: CSCC[C@H](NC(=O)[C@H](CCC(N)=O)NC(=O)[C@H](CCCCN)NC(=O)[C@H](CCCCN)NC(=O)[C@H](CC(C)C)NC(=O)[C@H](CO)NC(=O)[C@H](CCCCN)NC(=O)[C@H](CC(C)C)NC(=O)[C@H](CO)NC(=O)[C@H](CC(C)C)NC(=O)[C@H](CCSC)NC(=O)[C@H](CCCNC(=N)N)NC(=O)[C@H](CCSC)NC(=O)[C@@H](N)CC(C)C)C(=O)N[C@@H](CCCCN)C(=O)N[C@@H](CCCCN)C(=O)N[C@H](C(=O)O)C(C)C [Peptide F]
- Gibbs Free Energy Change (ΔrG) ([2]; apo-buffer (10 mM EDTA)): -6.29 ± 0.072 kcal/mol
- Entropic Term (−T∙ΔrS) ([2]; apo-buffer (10 mM EDTA)): -7.55 ± 0.14 kcal/mol
- Stoichiometry [N] ([2]; apo-buffer (10 mM EDTA)): 0.89 ± 0.01
- Binding Enthalpy (ΔrH) ([2]; apo-buffer (10 mM EDTA)): 1.24 ± 0.12 kcal/mol
- Kd of CaM^E105A, times higher (binding times weaker) compared to CaM^WT ([2]; apo-buffer, 25 °C, ratio of Kd CaM^E105A / CaM^WT): ~ 2 times
- effect of E105A mutation on the binding of CaM to the peptide ([2]; compared to CaM^WT, holo-buffer, 25 °C): significantly lower affinity
- Gibbs Free Energy Change (ΔrG) ([2]; holo-buffer (10 mM CaCl2)): -7.62 ± 0.072 kcal/mol
- Entropic Term (−T∙ΔrS) ([2]; holo-buffer (10 mM CaCl2)): -9.49 ± 0.12 kcal/mol
- Stoichiometry [N] ([2]; holo-buffer (10 mM CaCl2)): 0.94 ± 0.01
- Binding Enthalpy (ΔrH) ([2]; holo-buffer (10 mM CaCl2)): 1.86 ± 0.096 kcal/mol
- ITC binding signature ([2]; holo-buffer, 25 °C): endothermic
- complex formed (stoichiometry) ([2]; holo-buffer, 25 °C): 1:1 complex
- Kd of CaM^E105A, times higher compared to CaM^WT ([2]; holo-buffer, 25 °C, ratio of Kd CaM^E105A / CaM^WT): ~ 4 times
